The chains behind the UniProt entries cited, without tags or fusion partners. Residues count along the entry.
UniProt P36897, 34-503 limits assumed: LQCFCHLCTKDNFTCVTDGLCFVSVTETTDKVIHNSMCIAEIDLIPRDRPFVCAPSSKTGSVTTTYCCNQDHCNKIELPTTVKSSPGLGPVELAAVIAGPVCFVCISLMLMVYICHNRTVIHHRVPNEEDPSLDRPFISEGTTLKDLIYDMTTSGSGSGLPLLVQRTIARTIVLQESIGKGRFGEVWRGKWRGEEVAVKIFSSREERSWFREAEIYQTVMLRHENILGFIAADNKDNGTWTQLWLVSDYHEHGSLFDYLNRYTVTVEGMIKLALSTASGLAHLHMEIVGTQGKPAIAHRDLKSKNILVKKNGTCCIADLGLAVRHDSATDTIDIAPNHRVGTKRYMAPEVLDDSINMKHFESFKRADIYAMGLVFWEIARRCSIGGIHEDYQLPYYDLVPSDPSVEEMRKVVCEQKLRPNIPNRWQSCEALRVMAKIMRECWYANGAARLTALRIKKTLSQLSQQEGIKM

In US11975005B2, “Treatment of respiratory diseases” (TIANLI BIOTECH PTY LTD, priority 2015, dated 2024):

Molecular target: ALK5 (Homo sapiens, UniProt P36897)
Experiment: ALK5 inhibition (IC50)
Format: biochemical
Conditions: read-out: IC50 ALK5

Compound: NC(=O)c1ccc(-c2nc(-c3ccc4c(c3)OCCO4)c(-c3ccccn3)[nH]2)cc1
- IC50: 540 nM
